Target: T1, purified recombinant human PDE9 (Homo sapiens, UniProt O76083)
T1 construct: FLAG; made in house; host or cells: baculovirus/Sf9
Assay: PDE9 enzyme inhibition scintillation proximity assay ([3H]cGMP hydrolysis)
Type: biochemical
Conditions: read-out: inhibition against PDE9 at a concentration of 1 μM
Procedure: The ability of the compounds of the invention to inhibit the PDE9 enzyme was determined using the following in vitro assay. The assay used purified recombinant human PDE9.
The assay uses [3H]cGMP which is hydrolysed by the PDE9 enzyme to the 5′-nucleotide [3H]GMP. The [3H]GMP binds to yttrium silicate scintillation proximity assay (SPA) beads, and detected by scintillation counting. Inhibition of activity is determined relative to the activity of uninhibited controls.
Phosphodiesterase Scintillation Proximity Assay (SPA) beads (Yttrium Silicate) were obtained from Amersham Biotech.
[^3H]Guanosine 3′,5′-Cyclic Phosphate ([^3H]-cGMP), Ammonium Salt was obtained from Amersham Biotech.
Buffer A was prepared containing Tris.HCl (20 mM), MgCl2.6H2O (5 mM) in water.
Buffer B was prepared containing Bovine Serum Albumin (2 mg/ml) (BSA) in Buffer A. It was prepared fresh and filter sterilised.
PDE9 enzyme solution was prepared in Buffer B (dilution factor determined such that no more than 30% breakdown of substrate occurred, but typically 1:35,000). […]
The plates were then analysed using a scintillation counter (such as the NXT TopCount)TM.
For each compound the percentage inhibition was calculated by the following equation: […]
IC50 values were determined from sigmoid dose response curves of enzyme activity vs. compound concentration.

By UniProt entry, the sequences of proteins in these tests, tags left out. Where a name states a change or a piece, a line headed by the entry shows the natural chain unless it says otherwise.
UniProt O76083: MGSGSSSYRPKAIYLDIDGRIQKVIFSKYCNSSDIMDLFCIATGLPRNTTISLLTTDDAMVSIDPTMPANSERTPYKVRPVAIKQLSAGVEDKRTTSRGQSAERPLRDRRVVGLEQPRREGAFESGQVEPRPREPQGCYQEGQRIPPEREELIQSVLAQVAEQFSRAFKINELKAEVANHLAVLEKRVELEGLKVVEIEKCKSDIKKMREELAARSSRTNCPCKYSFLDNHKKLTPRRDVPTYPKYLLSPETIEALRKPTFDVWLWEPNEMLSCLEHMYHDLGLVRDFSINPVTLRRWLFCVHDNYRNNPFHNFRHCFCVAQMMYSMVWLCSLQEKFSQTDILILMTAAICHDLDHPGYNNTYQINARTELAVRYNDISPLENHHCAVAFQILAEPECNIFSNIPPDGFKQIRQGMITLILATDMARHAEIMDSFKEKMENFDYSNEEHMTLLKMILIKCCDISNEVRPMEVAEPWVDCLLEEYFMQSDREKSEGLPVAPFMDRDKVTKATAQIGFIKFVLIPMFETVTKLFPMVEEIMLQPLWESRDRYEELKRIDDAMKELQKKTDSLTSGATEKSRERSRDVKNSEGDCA

CC(C)c1n[nH]c2c(=O)[nH]c(Cc3cccc(Cl)c3)nc12 [Compound 1, 5-(3-chlorobenzyl)-3-isopropyl-1,6-dihydro-pyrazolo[4,3-d]pyrimidin-7-one]
inhibition at 1 µM: > 40%

— patent US20030195205A1, “PDE9 inhibitors for treating cardiovascular disorders” (Pfizer Inc., priority 2001, published 2003)
